The entries are a selection whose mix differs from that of the whole data set. The source made the active and inactive calls. No stated cut-off is given here; in the data, active means inhibition above about 75%; inactive means the rest.
What follows are compounds tested against NADPH oxidase 1 (Homo sapiens) (UniProt Q9Y5S8) (assay: inhibitors of human NADPH oxidase 1 (Nox1) (AID 1792)). Settings: HT29 cells, luminol chemiluminescence ROS; at 6.7 µM; hits give high values.

The chains behind the UniProt entries cited, without tags or fusion partners.
UniProt Q9Y5S8, whole entry: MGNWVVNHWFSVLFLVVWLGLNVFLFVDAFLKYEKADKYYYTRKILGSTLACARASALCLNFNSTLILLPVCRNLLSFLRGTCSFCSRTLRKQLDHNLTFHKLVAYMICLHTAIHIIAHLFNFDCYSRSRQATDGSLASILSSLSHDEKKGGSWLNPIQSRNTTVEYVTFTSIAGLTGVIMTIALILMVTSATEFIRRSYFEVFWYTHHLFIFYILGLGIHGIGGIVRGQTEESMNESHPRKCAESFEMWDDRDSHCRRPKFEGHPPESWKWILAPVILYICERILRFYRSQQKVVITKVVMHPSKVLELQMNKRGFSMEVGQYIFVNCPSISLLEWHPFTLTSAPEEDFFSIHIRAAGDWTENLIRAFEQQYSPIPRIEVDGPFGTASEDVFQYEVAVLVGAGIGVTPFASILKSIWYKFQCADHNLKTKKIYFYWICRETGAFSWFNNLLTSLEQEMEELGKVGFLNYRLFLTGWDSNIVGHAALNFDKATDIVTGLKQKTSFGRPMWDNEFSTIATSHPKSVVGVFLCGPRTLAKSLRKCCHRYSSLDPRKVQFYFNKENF

SMILES	inhibition
O=[N+]([O-])C1([N+](=O)[O-])COCOC1	inactive: -16.9%
